Data from patent publication US10772884B2, “Sulphate salts of N-(3-(4-(3-(diisobutylamino)propyl)piperazin-1-yl)propyl)-1H-benzo[d]imidazol-2-amine, preparation thereof and use of the same” (ALZPROTECT, priority 2012, dated 2020).

Assay: salt formation results (physical form)
Type: physicochemical
Settings: Acid eq. added 1.1
Procedure: The hydrochloride, hydrobromide, acetate, tartrate, fumarate, malate, oxalate and sulphate salts of N-(3-(4-(3-(diisobutylamino)propyl)piperazin-1-yl)propyl)-1H-benzo[d]imidazol-2-amine were prepared according to procedures similar to those described in the previous examples or standard salt formation methods well known in the art.

With Bromide the Physical form was “No solid formed”.
